{
  "source": "patent US6825348B2",
  "about": "“Antiviral compounds” (Academia Sinica, priority 2002, dated 2004)",
  "test_system": "MSV",
  "settings": "MSV-infected NMRI mice, i.p.",
  "data": [
    {"compound": "Nc1ncnc2c1ncn2CCOCP(=O)(O)O", "note": "[PMEA 4, 9-[2-(phosphonomethoxy)ethyl]adenine, reference compound]", "values": [
      {"measurement": "weight loss of the surviving animals relative to 28-treated mice", "result": "at least two times more"}
    ]}
  ]
}
